# System: human sebocytes
# Assay: Sebaceous lipid synthesis by sebaceous cells (14C acetate, HPTLC)
# Format: cell-based
# Conditions: Cholera toxin & Bovine pituitary extract
compound,measurement,setting,value
"COc1ccccc1-c1nc(Nc2ccccc2)s[n+]1-c1ccccc1OC.[Br-] [Compound 74, 2-(2-methoxyphenyl)-3-(2-methoxyphenyl)-5-phenylamino-[1,2,4]-thiadiazol-2-ium]",% Inh @ 0.4 μM Triglyceride,"cell sex F/M, 0.4 μM",0%
same,% Inh @ 0.6 μM Triglyceride,"cell sex F/M, 0.6 μM",0%
same,% Inh @ 0.4 μM Cholesterol ester,"cell sex F, 0.4 μM",85%
same,% Inh @ 0.4 μM Wax ester,"cell sex F, 0.4 μM",70%
same,% Inh @ 0.6 μM Cholesterol ester,"cell sex F, 0.6 μM",88%
same,% Inh @ 0.6 μM Unknown lipid,"cell sex F, 0.6 μM",85/80%
same,% Inh @ 0.6 μM Wax ester,"cell sex F, 0.6 μM",67%
same,% Inh @ 0.4 μM Cholesterol ester,"cell sex M, 0.4 μM",64%
same,% Inh @ 0.4 μM Wax ester,"cell sex M, 0.4 μM",50%
same,% Inh @ 0.6 μM Cholesterol ester,"cell sex M, 0.6 μM",76%
same,% Inh @ 0.6 μM Wax ester,"cell sex M, 0.6 μM",42%

# — patent US8501791B2, “1,2,4-thiadiazolium derivatives as melanocortin receptor modulators” (Ortho-McNeil Pharamaceutical, Inc., priority 2001, dated 2013)
